Test results: patent US5834290

Key:
[1] = molecular target: recombinant SCCE, active (trypsin-activated recombinant SCCE of Example 10; rSCCE of Examples 12 and 13) (human)
[2] = molecular target: stratum corneum chymotryptic enzyme (SCCE), native, from human plantar stratum corneum (human)

S-2586 hydrolysing activity of rSCCE, Activity (%) (% activity at 5.7 µM aprotinin) [1]: 7.4
hydrolysis of S-2586 by the proteinase associated with plantar stratum corneum cells, Activity (%) [2]: 10 % activity
Substance: aprotinin (from UniProt P00974)
